Apparent affinities of Ab-14 variants for a coronavirus HR2 peptide

All variants were tested on one target, the spike HR2 peptide PDVDLGDISGINAS (SARS-CoV-2).

Parent scFv Ab-14: VH joined to VL by three GGGGS repeats. Changes lie in the heavy chain CDRs alone.
VH: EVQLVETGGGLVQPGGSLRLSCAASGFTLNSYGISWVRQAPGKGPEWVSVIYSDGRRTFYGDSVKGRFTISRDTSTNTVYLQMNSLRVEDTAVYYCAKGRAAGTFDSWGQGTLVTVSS
VL: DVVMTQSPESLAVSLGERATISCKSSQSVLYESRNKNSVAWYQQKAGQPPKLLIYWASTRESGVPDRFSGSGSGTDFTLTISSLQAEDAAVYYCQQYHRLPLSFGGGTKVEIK

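Phage display of a naive human antibody library on the peptide gave the parent. AAYL49 was designed without a model: most single CDR substitutions and a random sample of double and triple ones. In AlphaSeq, yeast of one mating type display the scFv and yeast of the other type display the target. The frequency of each diploid, read from paired DNA barcodes, reflects how well the two displayed proteins bind. A regression on co-assayed BCL2-family reference pairs converts the normalised counts of each replicate to an apparent Kd. Each pool was mated in three replicate cultures.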

Positions count from residue 1 of the parent VH; S31A puts A in place of S. Scale: log10 of Kd in nM, estimated from mating counts; low values are strong binders. The mean shown is taken over the replicates in which the pair was detected. A pair that was not seen in any replicate is written "not detected"; this usually means weak binding, but a binder can also be missed. Empty control strains, which show no peptide, gave a signal in 15% of pairings with library AAYL49; the median was 4.06 and 95% of these signals were weaker than 2.83. No background was subtracted. For reference, the parent read 0.65 as the reference entry and 4.11 (one replicate of three) as a member of this library.

changes	mean, log10 nM	seen in
S31A/G33W/G55Q	not detected	0/3
G33N/Y52N/D62M	not detected	0/3
S31E/F59V/F105K	1.33	3/3
N30T/Y52K/D106Q	not detected	0/3
Y52F/F59Y/D106K	4.12	1/3
I34P/R57E	not detected	0/3
D54G/T58E/D62N	not detected	0/3
V50L/R57N	4.43	1/3
S35T/Y52P/Y60C	4.88	1/3
G26P/V64C/G99Y	not detected	0/3
T28W/R56W/S63K	2.31	3/3
T28I/G55W/S63P	3.98	2/3
G99N/A101Y/D106C	1.84	3/3
D54L/T58D/D106K	2.99	1/3
G55F/R56L/F59A	5.16	3/3
T28P/G33V/V64L	not detected	0/3
T28F/S31I/S35L	not detected	0/3
T28A/I34N/S63P	4.56	1/3
T28Q/S53Y/T104Q	1.46	3/3
G33D/I34L/G103L	6.24	1/3
R56H/R57M/D62W	not detected	0/3
G33D/D62P/A101Y	2.42	3/3
K65I/A102N/S107G	not detected	0/3
T58D/A101E/D106R	not detected	0/3
G33T/G55D/F59I	not detected	0/3
S53T/F59D	not detected	0/3
R57Y/G61S/T104N	3.94	1/3
G33V/I34E/S35W	not detected	0/3
Y60S/R100S/F105Y	not detected	0/3
I34A/Y60A/F105A	4.81	2/3
Y60I/D62F/G99C	not detected	0/3
S53M/R56N/A101I	not detected	0/3
T28N/S31E/D62G	0.47	3/3
S63W/V64K/A101Q	4.69	1/3
Y52C/A102C	5.70	1/3
S35V/V50P/A101M	3.94	2/3
S63F/T104W	1.13	3/3
G99H/A101K/G103S	5.23	2/3
N30L/V50F/R100P	not detected	0/3
N30E/G33W/R56D	not detected	0/3
S53W/A102Y/F105Y	3.46	3/3
R56K/K65L/T104M	6.05	1/3
N30C/I34G/V64F	not detected	0/3
S31R/V50Y/A101N	3.26	1/3
T28I/N30L/Y32S	not detected	0/3
V50M/R56P/F59D	4.08	3/3
V50T/T104R/S107L	4.72	1/3
T28H/S63H/A102G	2.71	2/3
S31Y/Y52C/R100Y	not detected	0/3
G26A/F27S/I51P	4.28	2/3
V64Q/G99A/G103M	not detected	0/3
Y32P/G61P/T104K	3.86	1/3
N30G/A102L/T104M	not detected	0/3
T28G/N30C/T58I	4.25	3/3
T58H/V64L/K65C	not detected	0/3
F27R/I34H/R56L	4.02	1/3
T28E/I51T/T104K	4.34	2/3

The last 7 entries again:

changes	mean, log10 nM	seen in
V64Q/G99A/G103M	not detected	0/3
Y32P/G61P/T104K	3.86	1/3
N30G/A102L/T104M	not detected	0/3
T28G/N30C/T58I	4.25	3/3
T58H/V64L/K65C	not detected	0/3
F27R/I34H/R56L	4.02	1/3
T28E/I51T/T104K	4.34	2/3

From the AlphaSeq antibody data of Engelhart et al. 2022 (doi:10.1038/s41597-022-01779-4), copy in the FLAb collection.